Measurements reported in patent EP2330125A2.

How the values were obtained:
amylin receptor (rat) = test: amylin RBA
[1] = target: T1, CGRP receptor (Homo sapiens (Human)), Q16602; test: CGRP RBA
T1 chain 1: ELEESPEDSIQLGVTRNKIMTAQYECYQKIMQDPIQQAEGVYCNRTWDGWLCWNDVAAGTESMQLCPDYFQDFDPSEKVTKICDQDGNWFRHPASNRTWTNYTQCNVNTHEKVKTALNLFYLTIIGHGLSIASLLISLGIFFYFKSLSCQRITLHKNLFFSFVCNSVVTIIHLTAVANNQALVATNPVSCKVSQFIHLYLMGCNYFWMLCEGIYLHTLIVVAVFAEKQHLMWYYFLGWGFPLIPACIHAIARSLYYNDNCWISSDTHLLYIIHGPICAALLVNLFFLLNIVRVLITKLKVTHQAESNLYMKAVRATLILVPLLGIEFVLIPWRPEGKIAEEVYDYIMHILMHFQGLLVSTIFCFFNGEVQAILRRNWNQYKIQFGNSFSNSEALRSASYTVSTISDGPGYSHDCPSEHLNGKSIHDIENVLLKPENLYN
T1 chain 2: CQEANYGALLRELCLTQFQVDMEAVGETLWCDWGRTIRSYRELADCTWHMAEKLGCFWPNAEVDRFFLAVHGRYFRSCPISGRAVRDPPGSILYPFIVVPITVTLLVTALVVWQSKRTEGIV

calcitonin receptor = test: CT RBA

Binder: SSSLPQTKCNTATCVLGRLSQELHRLQTYPRTNTGSNTY (modifications not checked) [[Ser117,dLeu119]leptin(116-122)-Amylin(1-7)-[11,18Arg]sCT(8-27)-Amylin(33-37)]
- IC50 (amylin receptor (rat)): 40 pM
- IC50 [1]: 81000 pM
- IC50 (calcitonin receptor): 63 pM
